The record followed here is patent US8058510B2, “Method and means to modulate programmed cell death in eukaryotic cells” (Bayer Bioscience N.V., priority 1998, dated 2011).

The target in the experiment is APP (Arabidopsis thaliana, UniProt Q11207). In words: Poly(ADP-ribose) polymerase activity assay in total protein extracts of yeast expressing APP. To be noted: extract of DY(pV8SPA) grown on galactose, FIG. 5A lane 1; majority in 10-15-mer.

B1: APP: NAP protein of Arabidopsis thaliana (SEQ ID No 6), non-conventional PARP, expressed in yeast (protein, listed as Arabidopsis thaliana)
chain: MANKLKVDELRLKLAERGLSTTGVKAVLVERLEEAIAEDTKKEESKSKRKRNSSNDTYESNKLIAIGEFRGMIVKELREEAIKRGLDTTGTKKDLLERLCNDANNVSNAPVKSSNGTDEAEDDNNGFEEEKKEEKIVTATKKGAAVLDQWIPDEIKSQYHVLQRGDDVYDAILNQTNVRDNNNKFFVLQVLESDSKKTYMVYTRWGRVGVKGQSKLDGPYDSWDRAIEIFTNKFNDKTKNYWSDRKEFIPHPKSYTWLEMDYGKEENDSPVNNDIPSSSSEVKPEQSKLDTRVAKFISLICNVSMMAQHMMEIGYNANKLPLGKISKSTISKGYEVLKRISEVIDRYDRTRLEELSGEFYTVIPHDFGFKKMSQFVIDTPQKLKQKIEMVEALGEIELATKLLSVDPGLQDDPLYYHYQQLNCGLTPVGNDSEEFSMVANYMENTHAKTHSGYTVEIAQLFRASRAVEADRFQQFSSSKNRMLLWHGSRLTNWAGILSQGLRIAPPEAPVTGYMFGKGVYFADMFSKSANYCYANTGANDGVLLLCEVALGDMNELLYSDYNADNLPPGKLSTKGVGKTAPNPSEAQTLEDGVVVPLGKPVERSCSKGMLLYNEYIVYNVEQIKMRYVIQVKFNYKH
Take B1: the “length of poly(ADP-ribose) polymers synthesized” value is on record as “up to 40 residues”.
